Measurements from patent US9730931B2, “Pyrimidine FGFR4 inhibitors” (priority 2013, dated 2017).

How the values were obtained:
[1] = test system: Purified, recombinant FGFR4; conditions: 10 μM compound
[2] = test system: JHH7 hepatocellular carcinoma xenograft; experiment: In vivo efficacy, JHH7 tumor xenograft
[3] = test system: HEP3B hepatocellular carcinoma xenograft; experiment: In vivo efficacy, HEP3B tumor xenograft; set-up: species or system nude mice
[4] = test system: HUH7 hepatocellular carcinoma xenograft; experiment: In vivo efficacy, HUH7 tumor xenograft; set-up: species or system nude mice

Compound | Observed mass of modified, intact FGFR4 ([1]; direct injection, intact protein) | Observed mass of peptide-ligand adduct ([1]; tryptic digest, modified peptide) | Sensitivity of the tumor model to the compound [2] | Tumor response ([2]; all dose levels) | Sensitivity of the tumor model to the compound [3] | Sensitivity of the tumor model to the compound [4]
C=CC(=O)Nc1ccccc1Nc1cc(N(C)C(=O)Nc2c(Cl)c(OC)cc(OC)c2Cl)ncn1 [Example 100, N-(2-{6-[3-(2,6-dichloro-3,5-dimethoxy-phenyl)-1-methyl-ureido]-pyrimidin-4-ylamino}-phenyl)-acrylamide] | 35836.1 Da | 3134.48 Da |  |  |  | 
C=CC(=O)Nc1cc(N2CCN(CC)CC2)ccc1Nc1cc(N(C)C(=O)Nc2c(Cl)c(OC)cc(OC)c2Cl)ncn1 [Example 108, N-(2-(6-(3-(2,6-Dichloro-3,5-dimethoxyphenyl)-1-methylureido)-pyrimidin-4-ylamino)-5-(4-ethylpiperazin-1-yl)-phenyl)-acrylamide] |  |  | least sensitive | Progressive Disease in all dose levels tested | most sensitive | intermediate sensitivity
